# Experimental data reported in PubChem BioAssay AID624115 (Johns Hopkins Ion Channel Center, 2012).
# Only a part is listed here, and it is no random draw. Activity calls are given as the source filed them.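 The calls were made as follows: active = calcium fluorescence ratio at least three times the spread of buffer wells, meaning a non-specific response in parental cells; inactive = the rest.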
# Assay: calcium response in parental HEK293 cells, primary screen, counter-screen for MrgX1 agonist project, cell-based, Fluo-4 calcium flux, duplicate, agonist mode (AID 624115)
# Details: parental HEK293, Fluo-4 calcium fluorescence (FDSS); at 10 µM; stronger effect = higher value
row,SMILES,fluorescence ratio F(max-min)/F0
1,CN(C)C1(CNC(=O)c2ccc(Cl)c(S(N)(=O)=O)c2)CCCCC1,inactive: 0
